# In PMC9199882 (Clinical and Translational Science, 2022):
# Like-named read-outs stand apart in the source and are kept apart here.
# Conditions: for AUCinf, G mean (GCV%): warfarin 5 mg oral single dose alone (cocktail with midazolam); for AUCinf, adjusted G mean / AUClast, adjusted G mean: linear mixed model
# [1] = warfarin 5 mg oral + asciminib 40 mg b.i.d. steady-state, day 11, plasma
# [2] = warfarin 5 mg oral alone, day 1, plasma
# [3] = warfarin + asciminib 40 mg b.i.d. steady-state
structure (smiles),measurement,setting,value
"CC(=O)C[C@H](c1ccccc1)c1c(O)c2ccccc2oc1=O [R‐Warfarin, R‐warfarin]","AUClast, G mean (GCV%)",[1],12000 (25.3) ng × h/ml
same,"AUClast, G mean (GCV%)",[2],9700 (24.7) ng × h/ml
same,"AUCinf, G mean (GCV%)","day 1, plasma",10500 (22.0) ng × h/ml
same,"AUCinf, adjusted G mean",[3],"13,500 ng × h/ml"
same,"AUClast, adjusted G mean",[3],"12,000 ng ×h/ml"
same,"AUCinf, adjusted G mean",warfarin alone,"10,800 ng × h/ml"
same,"AUClast, adjusted G mean",warfarin alone,9700 ng·h/mL
"CC(=O)C[C@@H](c1ccccc1)c1c(O)c2ccccc2oc1=O [S‐Warfarin, S‐warfarin]","AUClast, G mean (GCV%)",[1],9010 (23.4) ng × h/ml
same,"AUClast, G mean (GCV%)",[2],6480 (22.8) ng × h/ml
same,"AUCinf, G mean (GCV%)","day 1, plasma",7350 (23.9) ng × h/ml
same,"AUCinf, adjusted G mean",[3],"10,300 ng × h/ml"
same,"AUClast, adjusted G mean",[3],9010 ng·h/mL
same,"AUCinf, adjusted G mean",warfarin alone,7350 ng·h/mL
same,"AUClast, adjusted G mean",warfarin alone,6480 ng·h/mL
